These results are taken from patent publication US20250387378A1, “METHODS AND COMPOSITIONS FOR PREVENTING SKIN TOXICITIES CAUSED BY BIOLOGICAL TARGETED CANCER DRUGS” (Hadasit Medical Research Services & Development Limited, priority 2019, published 2025).

Test [1] has as its system phosphorylated EGFR receptor. As to the kind of experiment: p-EGFR level by flow cytometry, HaCaT cells treated with EGF and cetuximab. The settings on record: 20 minutes, EGF and 5 ug/ml cetuximab. Type of test: cell-based, human. The method, then: The novel approach proposed by the invention is to specifically target and block the effect of the anti-neoplastic biological targeted agents in the skin. Cetuximab and panitumumab are known monoclonal antibodies that block EGFR.
(§1) The level of phosphorylated EGFR receptor was measured in cell lines by flow cytometry.

Test [2] deals with phosphorylated EGFR receptor. As to the kind of experiment: p-EGFR level by flow cytometry, A431 cells treated with EGF and cetuximab. Type of test: cell-based. The settings on record: 20 minutes, EGF and 5 ug/ml cetuximab. The method, then:
as §1
On the technique in general: Flow cytometry measures light scatter and fluorescence of single cells or particles in a stream.

The next test concerns HaCaT cells. As to the kind of experiment: annexin-V/PI flow cytometry, cetuximab induced cell death in HaCaT cells. It is filed as cell-based, human. Conditions: cetuximab alone, 72 hours, one representative experiment. The method, then:
The novel approach proposed by the invention is to specifically target and block the effect of the anti-neoplastic biological targeted agents in the skin.
(§2) Apoptosis and cell death were evaluated by annexin-V and propidium-iodide (PI) labeling, followed by flow cytometry.

The test system of the next test is A431 cells. As to the kind of experiment: annexin-V/PI flow cytometry, cetuximab induced cell death in A431 cells. It is filed as cell-based. Conditions: cetuximab alone, 72 hours, one representative experiment. The method, then: as §2

Take “cetuximab: known monoclonal antibody that blocks EGFR [reference compound]”: the “activated levels of p-EGFR” value in test [1] is reported as 15%; in test [2], 16.8%. Moreover, the live cells is given as 55% in the test with HaCaT cells and 34.6% in the test on A431 cells.
